# From publication PMC6454087
# Target: mouse rec1c sNASP variant protein (V281I, L282F) (mouse)
# Test: BLI; Octet K2, 30 C; sNASP WT or variant immobilised on aminopropylsilane (APS) biosensors, histones in assay buffer at various concentrations (62.5 to 1,000 nM shown for H4), association 240 s; n = 4
substance,measurement,value
mouse histone H3.1 (from UniProt P68433 1-136) (natural protein),Kd,8.45 nM
same,kon,8950 M⁻¹ s⁻¹
